Measurements: patent US5369105A (priority 1993, dated 1994)

By UniProt entry, the sequences of proteins in these tests, tags left out. Where a name states a change or a piece, a line headed by the entry shows the natural chain unless it says otherwise.
UniProt P41144: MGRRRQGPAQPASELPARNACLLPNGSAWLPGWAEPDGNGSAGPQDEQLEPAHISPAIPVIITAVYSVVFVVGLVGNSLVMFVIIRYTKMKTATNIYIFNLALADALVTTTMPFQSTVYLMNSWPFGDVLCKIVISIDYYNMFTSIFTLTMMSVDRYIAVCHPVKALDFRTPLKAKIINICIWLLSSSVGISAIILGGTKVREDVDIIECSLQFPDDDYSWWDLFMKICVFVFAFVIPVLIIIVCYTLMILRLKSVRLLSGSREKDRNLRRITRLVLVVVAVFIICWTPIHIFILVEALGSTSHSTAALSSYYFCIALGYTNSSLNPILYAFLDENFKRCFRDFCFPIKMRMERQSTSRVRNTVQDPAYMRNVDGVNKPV

Key:
[1] = system: K+-evoked, Ca2+-dependent release of preloaded [3H]glutamate in slices of SNR; experiment: In vitro EAA release studies in slices of substantia nigra reticulata; type: cell-based; settings: 1 μM, rat SNR slices
[2] = system: reserpine-treated Parkinsonian rat; experiment: Intracerebral injections into the entopeduncular nucleus in reserpine-treated Parkinsonian rats; settings: unilateral injection into entopeduncular nucleus
[3] = system: MPTP-treated Parkinsonian marmoset; experiment: Intracerebral injections into the medial globus pallidus (GPM) in the MPTP-treated primate
[4] = system: rat paw pressure test for analgesia; experiment: rat paw pressure test for analgesia; settings: iv
[5] = system: kappa opioid; experiment: kappa opioid receptor affinity and selectivity; settings: selectivity
[6] = molecular target: kappa opioid (Cavia porcellus, UniProt P41144); experiment: kappa opioid receptor affinity and selectivity; settings: read-out: Ki (kappa opioid affinity)

CN(C(=O)Cc1cccc2occc12)[C@H]1CC[C@@]2(CCCO2)C[C@@H]1N1CCCC1
attenuation of K+-evoked, Ca2+-dependent release of preloaded [3H]glutamate ([1]; 40 mM K+): over 98% | release of [3H]glutamate induced by 40 mM K+ (in words) ([1]; N=6): completely inhibited | rigidity ([2]; reserpine 4 mg/kg rats): reductions in rigidity | locomotor score (distance moved) ([2]; reserpine 4 mg/kg rats, increasing doses): increasing amounts of locomotor activity | alleviation of Parkinsonian symptoms ([2]; reserpine-treated rat): marked dose-dependent alleviation of Parkinsonian symptoms | reversal of Parkinsonian rigidity and akinesia ([3]; bilateral injections into GPM, 20 mM and 50 mM): marked reversal of Parkinsonian rigidity and akinesia | latency of onset of anti-Parkinsonian effects ([3]; higher dose (50 mM), GPM): less than 4 minutes | stereotyped movements ([3]; higher dose (50 mM), GPM): some stereotyped movements were seen | locomotor activity / mobility score ([3]; injections into GPM): returned to near normal levels | latency of onset of anti-Parkinsonian effects ([3]; lower dose (20 mM), GPM): approximately 25 minutes | stereotypy ([3]; lower dose (20 mM), GPM): no stereotypy was seen | MPE50 in the rat paw pressure test for analgesia [4]: 0.030 | μ/kappa ratio [5]: 798 | Ki [6]: 730 pM
